In ChEMBL document CHEMBL4130443, “Targeting breast cancer stem cells by novel HDAC3-selective inhibitors” (Eur J Med Chem, 2017):

Legend:
MDA-MB-231 [1] = experiment: Inhibition of mammosphere formation of human MDA-MB-231 cells incubated for 7 days; assay type: functional, cell-based
MDA-MB-231 [2] = experiment: Inhibition of colony formation of human MDA-MB-231 cells incubated for 48 hrs by crystal violet staining based assay; assay type: functional, cell-based

Row | SMILES | inhibition (MDA-MB-231 [1]) | inhibition (MDA-MB-231 [2])
1 | CC(C)(C(=O)Nc1ccc(C(=O)Nc2ccc(F)cc2N)cc1)c1ccccc1 | Dose-dependent effect | Dose-dependent effect
2 | Nc1cc(F)ccc1NC(=O)c1ccc(NC(=O)Cc2ccccc2)cc1 | Dose-dependent effect | Dose-dependent effect
